Source: article PMC7521688 (PLoS Pathogens, 2020)

Sequences of proteins named here, by UniProt entry; tags and fusion partners are left off. Residues count along the entry.
UniProt O83732, 97-237: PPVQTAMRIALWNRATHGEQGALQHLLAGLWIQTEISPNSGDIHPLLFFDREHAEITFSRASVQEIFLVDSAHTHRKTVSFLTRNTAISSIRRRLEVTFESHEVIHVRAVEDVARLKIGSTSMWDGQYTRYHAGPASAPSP

Molecular target: T1, TP0751^97-237 (C-terminal lipocalin domain of TP0751) (Treponema pallidum, UniProt O83732)
T1 construct: gene TP_0751
Experiment: biochemical

For `C=CC1=C(C)C2=Cc3c(C=C)c(C)c4[n]3[Fe]([Cl])[n]3c(c(C)c(CCC(=O)O)c3=CC3=NC(=C4)C(C)=C3CCC(=O)O)=CC1=N2` [heme], the Kd was 11.7 ± 2.2 µM.
